# From US12414968B2, “Compositions comprising bacterially derived minicells and methods of using the same” (EnGeneIC Molecular Delivery Pty Ltd, priority 2018, dated 2025)
# System: Adreno-cortical cancer cell lines ACC01 and ACC07
# Assay: MTS cell proliferation assay, ACC01 and ACC07
# Conditions: 72 hrs, lines derived from Stage IV patients
smiles,measurement,value
O=C1[O][Pt]2([NH][C@@H]3CCCC[C@H]3[NH]2)[O]C1=O [oxaliplatin],cytotoxic effect / resistance of the cell lines,highly resistant
